PubChem BioAssay AID1326 (NMMLSC, 2008)
The entries are a selection whose mix differs from that of the whole data set. The source made the active and inactive calls. No stated cut-off is given here; in the data, active means inhibition above about 40%; inactive means the rest.

By UniProt entry, the sequences of proteins in these tests, tags left out.
UniProt P08183, whole entry: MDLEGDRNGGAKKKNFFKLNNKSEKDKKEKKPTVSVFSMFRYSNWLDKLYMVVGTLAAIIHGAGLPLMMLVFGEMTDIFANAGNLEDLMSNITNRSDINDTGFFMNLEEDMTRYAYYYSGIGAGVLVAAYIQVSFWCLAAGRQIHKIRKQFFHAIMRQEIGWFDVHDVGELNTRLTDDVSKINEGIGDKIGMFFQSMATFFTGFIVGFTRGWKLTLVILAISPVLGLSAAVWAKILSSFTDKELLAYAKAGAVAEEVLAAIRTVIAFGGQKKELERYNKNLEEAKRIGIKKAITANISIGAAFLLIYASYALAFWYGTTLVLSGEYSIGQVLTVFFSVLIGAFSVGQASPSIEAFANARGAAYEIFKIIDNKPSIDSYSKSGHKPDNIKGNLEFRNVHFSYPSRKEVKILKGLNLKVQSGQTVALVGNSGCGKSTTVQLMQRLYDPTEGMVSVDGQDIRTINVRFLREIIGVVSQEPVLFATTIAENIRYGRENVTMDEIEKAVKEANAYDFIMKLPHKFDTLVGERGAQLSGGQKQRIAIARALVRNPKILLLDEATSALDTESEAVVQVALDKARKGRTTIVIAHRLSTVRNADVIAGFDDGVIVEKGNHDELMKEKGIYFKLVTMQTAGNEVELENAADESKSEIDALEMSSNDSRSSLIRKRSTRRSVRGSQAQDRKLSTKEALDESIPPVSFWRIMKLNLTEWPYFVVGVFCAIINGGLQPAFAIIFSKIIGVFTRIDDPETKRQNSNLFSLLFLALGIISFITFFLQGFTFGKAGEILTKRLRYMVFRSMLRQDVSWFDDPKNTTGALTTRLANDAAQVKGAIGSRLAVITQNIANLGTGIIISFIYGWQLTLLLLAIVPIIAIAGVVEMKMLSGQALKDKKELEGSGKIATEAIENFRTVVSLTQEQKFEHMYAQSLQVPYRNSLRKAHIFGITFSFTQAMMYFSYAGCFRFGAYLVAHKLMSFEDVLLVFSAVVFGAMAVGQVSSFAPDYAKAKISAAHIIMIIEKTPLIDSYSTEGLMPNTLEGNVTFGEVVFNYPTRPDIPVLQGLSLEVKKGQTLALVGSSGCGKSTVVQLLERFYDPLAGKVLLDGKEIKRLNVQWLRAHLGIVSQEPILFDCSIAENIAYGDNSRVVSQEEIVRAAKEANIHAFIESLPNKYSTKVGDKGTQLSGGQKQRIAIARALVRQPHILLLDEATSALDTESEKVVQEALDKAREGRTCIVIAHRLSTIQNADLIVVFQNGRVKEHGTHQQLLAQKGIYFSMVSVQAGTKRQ

What follows are compounds tested against ATP-dependent translocase ABCB1 (Homo sapiens) (UniProt P08183) (assay: blockers of ABCB1-mediated dye efflux – cell-based, multiplex, flow cytometry, ABCG2 counter-screen, primary screen (AID 1326;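 further: 0% = vehicle and 100% = reference inhibitor; higher value means more JC-1 retained so stronger ABCB1 efflux block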)). Details: CCRF-Adr cells, JC-1 efflux, at 6.6 µM, stronger effect = higher value.

| SMILES | inhibition |
| --- | --- |
| COc1ccc(NC2CCN(CCc3ccccc3)CC2)c(OC)c1 | inactive: 1.86% |
| COc1ccc(C(=O)NCC2(N3CCCCC3)CCCCC2)c(OC)c1OC | inactive: 0.02% |
| CCOC(=O)N1CCC(Nc2ccc(OC)cc2)CC1 | inactive: 0.95% |
| O=C(OC1CN2CCC1CC2)C1c2ccccc2Oc2ccccc21 (stereo not given) | inactive: 0.33% |
| O=C(NCC1(N2CCOCC2)CCCCC1)c1cc2ccccc2o1 | inactive: 0.1% |
| COc1ccc(CN(CCCl)CCCl)cc1Cl | inactive: 0.59% |
| CN(C)c1cccc(C(=O)NCC2(N3CCCCC3)CCCCC2)c1 | inactive: -0.4% |
| CC(C)c1ccc(NC2CCN(C(=O)OC(C)(C)C)CC2)cc1 | inactive: 0.06% |
| O=C(NCC1(N2CCCCC2)CCCCC1)c1cccc([N+](=O)[O-])c1 | inactive: 0.4% |
| N#CC1(Nc2ccccc2)CCN(CCc2ccccc2)CC1 | inactive: 0.53% |
| COc1ccc(NC2CCN(C(=O)OC(C)(C)C)CC2)cc1 | inactive: 0.74% |
| CN1CCN(CCOC(=O)C(O)(c2ccccc2)c2ccccc2)CC1 | inactive: 1% |
| O=C(NCC1(N2CCOCC2)CCCCC1)c1cc(=O)[nH]c2ccccc12 | inactive: -0.4% |
| N#Cc1ccc(C(=O)NCC2(N3CCCCC3)CCCCC2)cc1 | inactive: -0.36% |
| c1ccc(CN2CCC(Nc3ccccc3)CC2)cc1 | inactive: 0.21% |
| COc1ccc(C(=O)NCC2(N3CCOCC3)CCCCC2)cc1OC | inactive: 0.67% |
| O=C(OC1CN2CCC1CC2)C1c2ccccc2C=Cc2ccccc21 (stereo not given) | inactive: 0.81% |
| N/C(=N\O)c1c(N)no[n+]1[O-] | inactive: 0.35% |
| CC(C)(C)OC(=O)N1CCC(Nc2ccccc2)CC1 | inactive: 0.33% |
| CCOc1ncccc1C(=O)NCC1(N2CCOCC2)CCCCC1 | inactive: -0.06% |
| CCC(CO)(C(=O)OC1CN2CCC1CC2)c1ccccc1 (stereo not given) | inactive: 0.58% |
| COc1cc(OC)cc(C(=O)NCC2(N3CCOCC3)CCCCC2)c1 | inactive: 0.09% |
| Fc1ccccc1NC1CCN(Cc2ccccc2)CC1 | inactive: 1.78% |
| CN(C)c1ccc(C(=O)NCC2(N3CCCCC3)CCCCC2)cc1 | inactive: 0.22% |
| CCN1CCC(Nc2cccc(F)c2)CC1 | inactive: 0.49% |
